We go through one molecule from PMC10480161, “Identification of potent and selective N-myristoyltransferase inhibitors of Plasmodium vivax liver stage hypnozoites and schizonts” (Nature Communications, 2023).

Sequences of proteins named here, by UniProt entry; tags and fusion partners are left off.
UniProt A5K1A2, entry or part of it: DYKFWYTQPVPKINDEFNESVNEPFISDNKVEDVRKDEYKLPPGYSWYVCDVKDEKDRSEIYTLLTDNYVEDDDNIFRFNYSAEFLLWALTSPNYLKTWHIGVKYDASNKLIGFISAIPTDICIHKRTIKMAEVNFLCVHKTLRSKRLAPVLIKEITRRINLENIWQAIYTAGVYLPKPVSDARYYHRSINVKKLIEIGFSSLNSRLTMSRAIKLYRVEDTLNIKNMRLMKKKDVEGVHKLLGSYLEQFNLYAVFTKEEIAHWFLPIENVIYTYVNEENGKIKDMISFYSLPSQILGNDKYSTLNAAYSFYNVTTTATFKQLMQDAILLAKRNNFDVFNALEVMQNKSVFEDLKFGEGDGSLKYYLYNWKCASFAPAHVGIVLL

Where “and” joins values, the source holds several entries; their conditions need not be identical. Identical values can stand only once.

The target in the assay is PvNMT (Plasmodium vivax, UniProt A5K1A2). Nature of the assay: NMT activity assay (CPM detection of free CoA), PvNMT. Conditions: enzyme selectivity, HsNMT IC50/PvNMT IC50.

In the case of `Cc1nn(C)c(C)c1CCOc1cccnc1-c1cccc(N2CCNCC2)c1` [Compound 12b], the SI was 259 and 259.2.
